In the experiment the target is Protein tyrosine phosphatase type IVA 3 (Homo sapiens, UniProt O75365).

The chains behind the UniProt entries cited, without tags or fusion partners.
UniProt O75365, whole entry: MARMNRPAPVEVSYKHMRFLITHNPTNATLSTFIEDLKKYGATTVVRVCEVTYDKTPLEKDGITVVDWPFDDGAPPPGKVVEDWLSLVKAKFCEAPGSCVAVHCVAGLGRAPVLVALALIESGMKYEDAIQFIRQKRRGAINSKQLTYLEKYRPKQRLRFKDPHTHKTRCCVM

As to `O=C1NC(=S)S/C1=C\c1cc(Cl)ccc1Cl`, the Ka was 6.44 10^6/M.
